Kd data for 1 substance are collected here from patent publication US7501434B2, “6-carboxy-normorphinan derivatives, synthesis and uses thereof” (Wyeth, priority 2006, dated 2009).

Protein sequences, listed by entry. Tags and fused reporters are not part of them. Lines headed by an entry give the natural chain unless they say otherwise; changes in a name come on top.
UniProt P41144: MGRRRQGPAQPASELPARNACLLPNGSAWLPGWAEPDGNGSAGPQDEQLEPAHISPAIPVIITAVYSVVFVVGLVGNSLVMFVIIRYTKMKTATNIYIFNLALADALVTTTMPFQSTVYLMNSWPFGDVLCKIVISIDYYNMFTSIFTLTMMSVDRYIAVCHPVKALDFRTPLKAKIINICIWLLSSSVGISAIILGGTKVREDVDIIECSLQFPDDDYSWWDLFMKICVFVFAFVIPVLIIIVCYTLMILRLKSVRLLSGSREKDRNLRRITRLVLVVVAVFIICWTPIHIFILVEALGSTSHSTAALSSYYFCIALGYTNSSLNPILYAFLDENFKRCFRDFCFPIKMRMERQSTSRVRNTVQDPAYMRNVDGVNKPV

This experiment addresses Kappa 1 (UniProt P41144). The experiment is described as follows: Neurotransmitter assay (radioligand binding), Kappa 1. The following applies: read-out: Kd (M) of radioligand.

Regarding [3H]U-69593, the Kd stood at 2.5e-10 M.
